One-dose inflammasome screen (PubChem AID 2061109, Seoul National University)
system: mouse macrophages from bone marrow, LPS + nigericin (NLRP3)
compound dose: 5 µM
value: % inhibition of cell death (propidium iodide), 0 = stimulated, 100 = untreated, floor at 0
*: called active, above 70% Part of the library is listed.

{"SMILES": "COc1cc(C=C(C(=O)/C=C/c2ccc(OC)c(OC)c2)C(=O)/C=C/c2ccc(OC)c(OC)c2)ccc1O", "inhibition [%]": "94.5*"}
{"SMILES": "CN1CCN2c3c(cccc31)[C@@H]1CN(CCCC(=O)c3ccc(F)cc3)CC[C@@H]12.Cc1ccc(S(=O)(=O)O)cc1", "inhibition [%]": "69.3"}
{"SMILES": "CC(C)c1ncc(Cc2ccccc2)[nH]c1=O", "inhibition [%]": "5.1"}
{"SMILES": "COC(=O)N[C@H](C(=O)N1CCC[C@H]1c1ncc(-c2ccc(-c3ccc(-c4cnc([C@H]5CCCN5C(=O)[C@H](NC(=O)OC)C(C)C)[nH]4)cc3)c3c2OCO3)[nH]1)C(C)C.Cl.Cl", "inhibition [%]": "0.0"}
{"SMILES": "C[N+]1(CC2CC2)CC[C@]23c4c5ccc(O)c4O[C@H]2C(=O)CC[C@@]3(O)[C@H]1C5.[Br-]", "inhibition [%]": "0.0"}
{"SMILES": "Cc1cc(C)nc(SCC(=O)Nc2ncc(Cc3cccc4ccccc34)s2)n1", "inhibition [%]": "26.7"}
{"SMILES": "NC(=O)c1ccc(Oc2ccc(CN3CCC[C@H]3c3cccnc3)cc2)c(Cl)c1", "inhibition [%]": "46.4"}
{"SMILES": "C=C(C(=O)OCC)C(O)c1ccccc1Cl", "inhibition [%]": "0.0"}
{"SMILES": "CCCCCN(CCCCC)C(=O)C(CCC(=O)[O-])NC(=O)c1ccc(Cl)c(Cl)c1.[Na+]", "inhibition [%]": "55.2"}
{"SMILES": "CN(C)c1ccc2c(c1)OC(N)=C(C#N)C2c1cccc(C(F)(F)F)c1", "inhibition [%]": "0.0"}
{"SMILES": "CC(C)C(=O)N1CCN(c2ccc(NC(=O)c3cc4ccccc4o3)cc2Cl)CC1", "inhibition [%]": "58.8"}
{"SMILES": "C[C@H]1OC[C@]2(c3cc(NC(=O)c4cnc(C(F)F)cn4)ccc3F)N=C(N)SC[C@H]12", "inhibition [%]": "73.9*"}
{"SMILES": "COC(=O)c1ccc2[nH]c(O)c(C(=Nc3ccc(N(C)C(=O)CN4CCN(C)CC4)cc3)c3ccccc3)c2c1", "inhibition [%]": "23.8"}
{"SMILES": "CCCCCCc1ccc(NC(=O)c2ccc([N+](=O)[O-])o2)cc1", "inhibition [%]": "0.0"}
{"SMILES": "COc1c(N2CCNC(C)C2)c(F)cc2c(=O)c(C(=O)O)cn(C3CC3)c12.Cl", "inhibition [%]": "59.8"}
{"SMILES": "Nc1cc(COc2c(Cl)cc(C[C@H](N)C(=O)O)cc2Cl)c2oc(-c3ccccc3)nc2c1", "inhibition [%]": "0.0"}
{"SMILES": "COc1ccc(S(=O)(=O)Nc2cccnc2Nc2ccc(O)cc2)cc1", "inhibition [%]": "16.2"}
{"SMILES": "O=C(O)c1cnc(SCCCc2ccccc2)[nH]c1=O", "inhibition [%]": "38.9"}
{"SMILES": "Cn1cc(-n2cnc3c(NCc4nc5cc(Cl)c(Cl)cc5[nH]4)nc(N4CCOCC4)nc32)cn1", "inhibition [%]": "65.6"}
{"SMILES": "CNC(=O)c1cc2c(Oc3ccc(NC(=S)NC(=O)Cc4ccccc4)cc3F)ccnc2cc1OC", "inhibition [%]": "0.0"}
{"SMILES": "O=C(Nc1ccc(I)cc1)c1ccc([N+](=O)[O-])o1", "inhibition [%]": "76.5*"}
{"SMILES": "O=C(O)c1ccc(C2(NC(=O)c3cccc4ccn(Cc5ccc(C(F)(F)F)cc5)c34)CC2)cc1", "inhibition [%]": "0.0"}
{"SMILES": "O=C1O[C@H]([C@@H](O)CO)C(O)=C1O", "inhibition [%]": "2.7"}
{"SMILES": "Cc1cc2nc3c4ccccc4n(CCN(C)C)c3nc2cc1C", "inhibition [%]": "27.8"}
{"SMILES": "Cl.O=C(O)C1=CCCNC1", "inhibition [%]": "0.0"}
{"SMILES": "CCN(Cc1cc(C(F)(F)F)ccc1-c1cc(CC(=O)O)ccc1OC)C(=O)NCc1ccccc1", "inhibition [%]": "0.0"}
{"SMILES": "CCN(C(=O)c1ccco1)c1nn(C)c2nc3cc(OC)ccc3cc12", "inhibition [%]": "42.1"}
{"SMILES": "CC(=O)N1CCCC1(Cc1ccc(S(C)(=O)=O)cc1)C(=O)OCc1ccccc1", "inhibition [%]": "62.2"}
{"SMILES": "Cc1cccn2c(=O)c3cc(C(=O)NCCCN4CCOCC4)c(=N)n(CCc4ccccc4)c3nc12", "inhibition [%]": "68.7"}
{"SMILES": "COC(=O)CN(c1ccc(CN(c2ccc(OCc3ccc(C)cc3)c(C(=O)OC)c2)S(=O)(=O)Cc2ccccc2)cc1)S(C)(=O)=O", "inhibition [%]": "68.4"}
{"SMILES": "CCCC(CCC)C(=O)[O-].[Na+]", "inhibition [%]": "0.0"}
{"SMILES": "Cc1cc(Nc2ncc3c(n2)N(C)C(=O)N(c2cc(NC(=O)c4cccc(C(F)(F)F)c4)ccc2C)C3)n(C)n1", "inhibition [%]": "83.6*"}
{"SMILES": "N#Cc1cc(-c2ccnc(Nc3ccc(N4CCOCC4)cc3)n2)ccc1OC1CCOCC1", "inhibition [%]": "69.9"}
{"SMILES": "CC(=O)O.CN=C(N)NCCC[C@@H](N)C(=O)O", "inhibition [%]": "45.5"}
{"SMILES": "C#Cc1cccc(Nc2ncnc3cc(OC)c(NC(=O)N4CCN(CC)CC4)cc23)c1.O=C(O)CCC(=O)O", "inhibition [%]": "4.9"}
{"SMILES": "CCN(C/C=C/C#CC(C)(C)C)Cc1cccc(OCC(C)(C)OCc2ccsc2)c1", "inhibition [%]": "0.0"}
{"SMILES": "CC[C@@]1(c2ccccc2)C2=C(CC(C)(C)CC2=O)Nc2[nH]ncc21", "inhibition [%]": "48.5"}
{"SMILES": "Cc1ccc(CNC(=O)N2CCC[C@]3(CCN(Cc4ccc(Cl)c(Cl)c4)C3)C2)cc1", "inhibition [%]": "0.0"}
{"SMILES": "CC(C)(C)OC(=O)N[C@@H]1CCCN(Cc2ccnc(C(=O)Nc3ccc(-c4cc5c(N6CCOCC6)ncnc5[nH]4)cc3)c2)C1", "inhibition [%]": "0.0"}
{"SMILES": "Cn1c(N2CCCCS2(=O)=O)nc(C(=O)NCc2ccc(F)cc2)c(O)c1=O", "inhibition [%]": "65.4"}
{"SMILES": "CC(C)(C)OC(=O)c1ccc(NC23CC4CC(CC(C4)C2)C3)c(N=Cc2cncnc2)c1", "inhibition [%]": "23.0"}
{"SMILES": "CCCn1c(=O)c2[nH]c(C34CCC(CCC(=O)O)(CC3)CC4)nc2n(CCC)c1=O", "inhibition [%]": "0.0"}
{"SMILES": "COC(=O)/C=C/c1ccc(O)c(O)c1", "inhibition [%]": "0.0"}
{"SMILES": "O=C(OC(C(F)(F)F)C(F)(F)F)N1CCN(Cc2ccc(C(F)(F)F)cc2N2CCCC2)CC1", "inhibition [%]": "22.7"}
{"SMILES": "Cl.NC1CCN(c2nc3c(cc2F)c(=O)c(C(=O)O)cn3-c2ccc(F)cc2F)C1", "inhibition [%]": "0.0"}
{"SMILES": "CCCCc1nc(Cl)c(CO)n1Cc1ccc(-c2ccccc2-c2nnn[n-]2)cc1.[K+]", "inhibition [%]": "0.0"}
{"SMILES": "O=C(Cc1c[nH]c2ccccc12)N[C@@H](Cc1c[nH]c2ccccc12)C(=O)O", "inhibition [%]": "0.0"}
{"SMILES": "COP(=O)(NC(C)=O)SC", "inhibition [%]": "0.0"}
{"SMILES": "CCCCOc1c(OC)cc(C(=O)NCC2(N(C)C)CCOCC2)cc1OC.Cl", "inhibition [%]": "0.0"}
{"SMILES": "COc1ccc2nc(S(=O)Cc3ncc(C)c(OC)c3C)[nH]c2c1.[Na]", "inhibition [%]": "0.0"}
{"SMILES": "C=C[C@@]1(C)Cc2occ(C)c2[C@@H]2OC(=O)C(=C)[C@@H]21", "inhibition [%]": "0.0"}
{"SMILES": "Cl.O=C(O)/C=C/c1ccc(Cn2ccnc2)cc1", "inhibition [%]": "2.5"}
{"SMILES": "COc1cccc([C@@H](C)NC(=O)c2ccc(-c3ccncc3)cc2)c1", "inhibition [%]": "38.9"}
{"SMILES": "CC(=O)O.NCCC(=O)NCCc1ncc[nH]1.O=C(O)C(F)(F)F.O=C(O)C(F)(F)F", "inhibition [%]": "75.3*"}
{"SMILES": "CCCCCCCCCC(=O)OCC(O)CO", "inhibition [%]": "43.0"}
{"SMILES": "CC(C)(O)CC(=O)NCCn1ccc2ncnc(Nc3ccc(Oc4cccc(C(F)(F)F)c4)c(Cl)c3)c21", "inhibition [%]": "0.0"}
{"SMILES": "Cl.NC1=NCC2c3ccccc3Cc3ccccc3N12", "inhibition [%]": "50.9"}
{"SMILES": "Cc1nc(-c2cc(C(=O)N3CCC(c4ccc(C#N)cc4)CC3)c(C)cc2C2CCC2)n[nH]1", "inhibition [%]": "0.0"}
{"SMILES": "COc1nccnc1NS(=O)(=O)c1ccc(NC(=O)/C=C/c2ccc([N+](=O)[O-])s2)cc1", "inhibition [%]": "53.2"}
{"SMILES": "Cc1c(OCC(F)(F)F)ccnc1C[S@](=O)c1nc2ccccc2[nH]1", "inhibition [%]": "32.5"}
{"SMILES": "O=C(O)c1cc(=O)c2ccc(Cl)cc2[nH]1", "inhibition [%]": "76.7*"}
{"SMILES": "CCCOc1ccc(/C=C2\\SC(=O)NC2=O)cc1", "inhibition [%]": "40.2"}
{"SMILES": "CC(C)=CCC[C@]1(C)C=Cc2c(O)c3c(c(CC=C(C)C)c2O1)O[C@]12C(=C[C@@H]4C[C@H]1C(C)(C)O[C@@]2(C/C=C(/C)C(=O)O)C4=O)C3=O", "inhibition [%]": "39.6"}
{"SMILES": "COc1cc(C(=O)NC2C[C@H]3CCC[C@@H](C2)N3CC(=O)Nc2ccccc2Cl)cc(OC)c1OC", "inhibition [%]": "0.0"}
{"SMILES": "N#Cc1ncccn1", "inhibition [%]": "0.0"}
{"SMILES": "CN(c1ccc(NC(=O)Nc2ccc(OC(F)(F)F)cc2)cc1)c1ccnc(Nc2cccc(S(N)(=O)=O)c2)n1", "inhibition [%]": "0.0"}
{"SMILES": "O=c1[nH][nH]c2cc(F)ccc12", "inhibition [%]": "78.7*"}
{"SMILES": "COc1cc([C@H]2OC[C@H]3[C@@H]2CO[C@@H]3c2ccc(O)c(OC)c2)ccc1O", "inhibition [%]": "58.4"}
{"SMILES": "C[C@H]1CNC(=O)c2cnn3cc4c(nc23)N(Cc2cc(F)cnc2O1)[C@@H]1CCC[C@@H]1O4", "inhibition [%]": "0.0"}
{"SMILES": "CCCC(=O)O[C@H]1CN2CC[C@H](O)[C@@H]2[C@@H](O)[C@@H]1O", "inhibition [%]": "0.0"}
{"SMILES": "OC1c2ccccc2-c2ccccc21", "inhibition [%]": "67.5"}
{"SMILES": "N#CC1(c2cccc(C(=O)Nc3cc(Oc4ccc5nc(NC(=O)C6CC6)sc5n4)ccc3F)c2Cl)CC1", "inhibition [%]": "24.2"}
{"SMILES": "C[C@H](CC[C@@H](O[C@@H]1O[C@H](CO)[C@@H](O)[C@H](O)[C@H]1O[C@@H]1O[C@H](CO)[C@@H](O)[C@H](O)[C@H]1O)C(C)(C)O)[C@H]1CC[C@@]2(C)[C@H]3CC=C4[C@@H](CC[C@H](O[C@@H]5O[C@H](CO[C@@H]6O[C@H](CO)[C@@H](O)[C@H](O)[C@H]6O)[C@@H](O)[C@H](O)[C@H]5O)C4(C)C)[C@]3(C)[C@H](O)C[C@]12C", "inhibition [%]": "63.9"}
{"SMILES": "OC[C@H]1O[C@@H](n2cnc3c2NC=NC[C@H]3O)C[C@@H]1O", "inhibition [%]": "49.8"}
{"SMILES": "CCN1C[C@@]2(COC)[C@H]3[C@@H](OC)[C@H]4C1[C@]3([C@@H](OC)C[C@H]2OC(C)=O)[C@@H]1C[C@@]2(O)[C@H](OC(=O)c3ccccc3)[C@@H]1[C@]4(OC(C)=O)[C@@H](O)[C@@H]2OC", "inhibition [%]": "62.1"}
{"SMILES": "COc1ccccc1[C@H](Cn1c(=O)n(C(C)(C)C(N)=O)c(=O)c2c(C)c(-c3ncco3)sc21)OC1CCOCC1", "inhibition [%]": "39.9"}
{"SMILES": "CC(C)NCC(O)c1ccc([N+](=O)[O-])cc1.Cl", "inhibition [%]": "0.0"}
{"SMILES": "O.O=C([O-])CC(O)(CC(=O)[O-])C(=O)[O-].[K+].[K+].[K+]", "inhibition [%]": "80.2*"}
{"SMILES": "Cc1noc(-c2ccc(-c3ccc(CC(=O)[O-])cc3)cc2)c1NC(=O)O[C@H](C)c1ccccc1.[Na+]", "inhibition [%]": "43.4"}
{"SMILES": "Cc1cccc(-c2[nH]ncc2-c2ccc(F)c(-c3cnn(CCO)c3)c2)n1", "inhibition [%]": "52.4"}
{"SMILES": "CC(Oc1cc(NS(=O)(=O)N2CCC2)nc(SCc2cccc(F)c2F)n1)C(O)CO", "inhibition [%]": "0.0"}
{"SMILES": "C[n+]1c2cc(N)ccc2cc2ccc(N)cc21.[Cl-]", "inhibition [%]": "13.9"}
{"SMILES": "O=C(Cc1ccccc1)Oc1c(OC(=O)Cc2ccccc2)c(-c2ccc(O)cc2)c(O)c(O)c1-c1ccc(O)cc1", "inhibition [%]": "0.0"}
{"SMILES": "NC(=O)c1csc([C@@H]2O[C@H](CO)[C@@H](O)[C@H]2O)n1", "inhibition [%]": "0.0"}
{"SMILES": "CO[C@@]1(NC(=O)C2SC(=C(C(N)=O)C(=O)O)S2)C(=O)N2C(C(=O)O)=C(CSc3nnnn3C)CS[C@@H]21", "inhibition [%]": "68.1"}
{"SMILES": "CC(C)(C)c1cc(C(=O)/C(C#N)=N/Nc2cccc(Cl)c2)no1", "inhibition [%]": "0.0"}
{"SMILES": "O=C(Nc1ccc(-c2ccccc2)cc1)c1no[nH]c1=O", "inhibition [%]": "39.0"}
{"SMILES": "C#CCCCn1cnc(=N)c2[nH]c(Sc3ccc(C)cc3C)nc21", "inhibition [%]": "3.4"}
{"SMILES": "Cc1cc(C)c(CNC(=O)c2cc(Cl)c3c(c2C)O[C@@](C)(C2CCC(N(C)C)CC2)O3)c(=O)[nH]1", "inhibition [%]": "1.3"}
{"SMILES": "FC(F)(F)c1cc(-c2ncn(/C=C\\c3nnco3)n2)cc(C(F)(F)F)c1", "inhibition [%]": "21.9"}
{"SMILES": "CCn1c(-c2nc3cc(C(=O)N4CCC[C@@H](N)C4)cc(OC)c3n2C)cc2cccnc21.Cl", "inhibition [%]": "0.0"}
{"SMILES": "CC(N)=NCc1cccc(CN)c1.Cl.Cl", "inhibition [%]": "53.7"}